The target in this test is T1, Mannan-binding lectin (MBL) of MBL-sufficient serum (human (endogenous in serum)), P11226.
T1 chain: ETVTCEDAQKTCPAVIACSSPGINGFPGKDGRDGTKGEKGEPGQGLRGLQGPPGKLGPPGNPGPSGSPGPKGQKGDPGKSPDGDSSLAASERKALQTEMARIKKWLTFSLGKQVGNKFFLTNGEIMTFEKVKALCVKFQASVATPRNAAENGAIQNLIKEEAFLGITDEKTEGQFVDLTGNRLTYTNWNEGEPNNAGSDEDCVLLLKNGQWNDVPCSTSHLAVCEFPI
As to the kind of experiment: SEC; serum fractionated on Superdex 200 10/300 GL in veronal-buffered saline with 140 mM NaCl, 0.5 ml/min, column calibrated with markers; the protein in each 500 µl fraction detected by ELISA (on mannan, mannan-bound rMBL or acetylated BSA); relative sizes. To be noted: remark: other sources report otherwise.

B1: Mannan-binding lectin (MBL) of MBL-sufficient serum, P11226 21-248 (natural protein)
chain: ETVTCEDAQKTCPAVIACSSPGINGFPGKDGRDGTKGEKGEPGQGLRGLQGPPGKLGPPGNPGPSGSPGPKGQKGDPGKSPDGDSSLAASERKALQTEMARIKKWLTFSLGKQVGNKFFLTNGEIMTFEKVKALCVKFQASVATPRNAAENGAIQNLIKEEAFLGITDEKTEGQFVDLTGNRLTYTNWNEGEPNNAGSDEDCVLLLKNGQWNDVPCSTSHLAVCEFPI
B1 gave a stoichiometry N of 3.

These data come from publication PMC6030254.
